For 2 molecules, Ki results are on record in patent US8575364B2, “Modulators of serotonin receptor” (Janssen Pharmaceutica NV, priority 2008, dated 2013).

Chains of the proteins cited; added tags and fusions are not shown. Residues count along the entry.
UniProt P32305, 1-435: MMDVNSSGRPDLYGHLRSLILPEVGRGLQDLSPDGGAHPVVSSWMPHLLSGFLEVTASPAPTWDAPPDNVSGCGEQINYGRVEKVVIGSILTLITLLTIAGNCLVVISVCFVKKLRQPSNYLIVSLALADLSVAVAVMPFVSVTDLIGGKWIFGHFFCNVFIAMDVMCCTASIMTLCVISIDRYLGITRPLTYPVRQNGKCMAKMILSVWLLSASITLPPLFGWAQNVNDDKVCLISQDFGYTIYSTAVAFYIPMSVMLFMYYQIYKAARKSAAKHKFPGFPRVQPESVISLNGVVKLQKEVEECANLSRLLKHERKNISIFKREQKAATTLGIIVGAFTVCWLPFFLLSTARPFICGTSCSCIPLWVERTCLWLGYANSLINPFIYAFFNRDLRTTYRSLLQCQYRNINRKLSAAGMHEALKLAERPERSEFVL

The target of the test is rat 5-HT7 receptors (Rattus norvegicus (Rat), UniProt P32305). Nature of the test: r5-HT7 competitive radioligand binding assay ([3H]5-CT). The note with it: membrane fractions of HEK-293 cells recombinantly expressing rat 5-HT7. The procedure: Compound affinity for the rat 5-HT7 receptor subtype was evaluated by competitive radioligand binding assays using 5-carboxamido[^3H]tryptamine ([^3H]5-CT) (Amersham Biosciences, cat. 90000403) detection. HitHunter™ cAMP assays are in-vitro based competitive immunoassays. […] Cells were pre-incubated with test compounds for 10 minutes. For agonistic testing, the concentration of test compound that produced a half-maximal response is represented by the EC50 value. Compounds were assayed in their free form or as salts, as indicated in the Examples section above.

Regarding `Cc1ccc(-c2ccccc2C2CCN(C)C2)cc1C` (racemic) [Example 58, (±)-3-(3′,4′-Dimethyl-biphenyl-2-yl)-1-methyl-pyrrolidine], the Ki – broadly, a measure of affinity in units of concentration, obtained from inhibition or displacement – turned out to be 155 nM.

Take `Cc1cccc(-c2ccccc2C2CCN(C)C2)c1` (racemic) [Example 53, (±)-1-Methyl-3-(3′-methyl-biphenyl-2-yl)-pyrrolidine]: the Ki is 310 nM.
